Assay results from patent publication US20020132817A1, “Heterocyclic compounds, their production and use” (priority 1998, published 2002).

By UniProt entry, the sequences of proteins in these tests, tags left out.
UniProt P25103, whole entry: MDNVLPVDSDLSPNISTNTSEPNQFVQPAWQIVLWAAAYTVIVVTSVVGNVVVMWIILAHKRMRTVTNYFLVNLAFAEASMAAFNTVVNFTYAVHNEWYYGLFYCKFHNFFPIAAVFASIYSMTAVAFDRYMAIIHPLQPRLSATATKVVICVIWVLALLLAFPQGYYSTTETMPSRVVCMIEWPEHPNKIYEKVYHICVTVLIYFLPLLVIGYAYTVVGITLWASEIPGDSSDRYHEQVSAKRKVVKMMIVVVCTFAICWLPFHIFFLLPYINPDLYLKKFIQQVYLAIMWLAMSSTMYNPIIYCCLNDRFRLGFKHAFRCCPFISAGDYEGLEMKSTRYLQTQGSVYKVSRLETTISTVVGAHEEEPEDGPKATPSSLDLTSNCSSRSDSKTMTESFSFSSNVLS

Target: T1, substance P receptor (Homo sapiens, UniProt P25103)
T1 construct: The receptor was prepared from human lymphoblast cells (IM-9); endogenous in cells; host or cells: IM-9 human lymphoblast cells (membrane preparation)
Experiment: Radioligand receptor binding inhibitory activity using receptor from human lymphoblast cells (IM-9)
Settings: 125I-BHSP radioligand, receptor from IM-9 cells, 25° C. for 30 minutes
Description: Radioligand receptor binding inhibitory activity Binding inhibitory activity using receptor from human lymphoblast cells (IM-9)
The receptor was prepared from human lymphoblast cells (IM-9). IM-9 cells (2×10^5 cells/ml) were inoculated and incubated for 3 days (one liter), which was then subjected to centrifuge for 5 minutes at 500×g to obtain cell pellets. […] The residue was washed twice with 30 ml of the above-mentioned buffer, which was then preserved frozen (−80° C.) as a specimen of the receptor.
The specimen was suspended in a reaction buffer (50 mM Tri-HCl buffer (pH 7.4), 0.02% bovine serum albumin, 1 mM phenylmethylsulfonyl fluoride, […], […] bacitracin, 3 mM manganese chloride) and 100 ul portion was the suspension was used in the reaction. […] The amount of nonspecific binding was determined by adding substance P at a final concentration of 2×10^−6M. After the reaction, using a cell harvester (290 PHD, Cambridge Technology, Inc, U.S.A.), rapid filtration was carried out through a glass filter (GF/B, Whatman, U.S.A.) to stop the reaction. After washing three times with 250 ul of 50 mM of Tris-HCl buffer (pH 7.4) containing 0.02% bovine serum albumin, the radioactivity remaining on the filter was determined with a gamma counter. Before use, the filter was immersed in 0.1% polyethyleneimine for 24 hours and air-dried.

IC50	SMILES
0.17 nM	Cc1ccc(-c2c3n(c(=O)c4ncccc24)CCC(C)CN(Cc2cc(C(F)(F)F)cc(C(F)(F)F)c2)C3=O)cc1 (racemic) [Reference Example 70, (+/−)-7-[3,5-Bis(trifluoromethyl)benzyl]-6,7,8,9,10,11-hexahydro-9-methyl-5-(4-methylphenyl)-6,13-dioxo-13H-[1,4]diazocino[2,1-g][1,7]naphthyridine]
0.43 nM	Cc1ccc(-c2c3n(c(=O)c4ncccc24)CC[C@@H](C)CN(Cc2cc(C(F)(F)F)cc(C(F)(F)F)c2)C3=O)cc1 [Reference Example 72, (9R)-7-[3,5-Bis(trifluoromethyl)benzyl]-6,7,8,9,10,11-hexahydro-9-methyl-5-(4-methylphenyl)-6,13-dioxo-13H-[1,4]diazocino[2,1-g][1,7]naphthyridine]
